One data set addresses Cytochrome P450 3A4 (Homo sapiens, UniProt P08684). As to the kind of experiment: Time dependent inhibition of CYP3A4 (unknown origin) at 10 uM. Format: ADME.
A short description of data set [1]: Unbound brain concentration in male Sprague-Dawley rat at 10 mg/kg, po administered as single dose and measured after 2 hrs by LC-MS/MS analysis. Format: ADME, organism-based. The note with it: in vivo.
The nature of data set [2]: Metabolic stability in rat hepatocytes assessed as parent compound remaining. Format: ADME, cell-based, Hepatocyte.
Data set [3] can be described thus: Unbound AUCinfinity in male Sprague-Dawley rat at 3 mg/kg, po in 10% Tween 80 in water formulation administered as single dose and measured upto 24 hrs by dose escalation based LC-MS/MS analysis. Format: ADME, organism-based. The note with it: in vivo.
Data set [4] can be described thus: Unbound Cmax in male Sprague-Dawley rat at 3 mg/kg, po in 10% Tween 80 in water formulation administered as single dose and measured upto 24 hrs by dose escalation based LC-MS/MS analysis. The class given is ADME, organism-based. As to conditions: in vivo; call rule not given here.
Data set [5] can be described thus: Drug metabolism in human hepatocytes assessed as N-(3-(7-chloro-[1,2,4]triazolo[1,5-a]pyridin-6-yl)-5-hydroxypentyl)-2-methylthiazole-5-sulfonamide formation. Format: ADME, cell-based, Hepatocyte.
A short description of data set [6]: Unbound brain concentration in male Sprague-Dawley rat at 10 mg/kg, po administered as single dose and measured after 1 hr by LC-MS/MS analysis. The class given is ADME, organism-based. The note with it: in vivo.
A short description of data set [7]: Metabolic stability in monkey hepatocytes assessed as parent compound remaining. The class given is ADME, cell-based, Macaca mulatta, Hepatocyte. As to conditions: rhesus monkey.
Data set [8] in a line: Unbound plasma concentration in male Sprague-Dawley rat at 10 mg/kg, po administered as single dose and measured after 1 hr by LC-MS/MS analysis. Format: ADME, organism-based. As to conditions: in vivo.
Data set [9] in a line: Unbound AUCinfinity in male Sprague-Dawley rat at 100 mg/kg, po in 10% Tween 80 in water formulation administered as single dose and measured upto 24 hrs by dose escalation based LC-MS/MS analysis. Format: ADME, organism-based. The note with it: in vivo.
The nature of data set [10]: Unbound AUCinfinity in male Sprague-Dawley rat at 30 mg/kg, po in 10% Tween 80 in water formulation administered as single dose and measured upto 24 hrs by dose escalation based LC-MS/MS analysis. The class given is ADME, organism-based. As to conditions: in vivo.
The nature of data set [11]: Unbound Cmax in male Sprague-Dawley rat at 30 mg/kg, po in 10% Tween 80 in water formulation administered as single dose and measured upto 24 hrs by dose escalation based LC-MS/MS analysis. Format: ADME, organism-based. As to conditions: in vivo.
A short description of data set [12]: Drug metabolism in dog hepatocytes assessed as N-(3-(7-chloro-[1,2,4]triazolo[1,5-a]pyridin-6-yl)-5-hydroxypentyl)-2-methylthiazole-5-sulfonamide formation. The class given is ADME, cell-based, Canis lupus familiaris, Hepatocyte.
The nature of data set [13]: Drug metabolism in rat hepatocytes assessed as N-(3-(7-chloro-[1,2,4]triazolo[1,5-a]pyridin-6-yl)-5-hydroxypentyl)-2-methylthiazole-5-sulfonamide formation. Format: ADME, cell-based, Hepatocyte.

The chains behind the UniProt entries cited, without tags or fusion partners.
UniProt P08684, whole entry: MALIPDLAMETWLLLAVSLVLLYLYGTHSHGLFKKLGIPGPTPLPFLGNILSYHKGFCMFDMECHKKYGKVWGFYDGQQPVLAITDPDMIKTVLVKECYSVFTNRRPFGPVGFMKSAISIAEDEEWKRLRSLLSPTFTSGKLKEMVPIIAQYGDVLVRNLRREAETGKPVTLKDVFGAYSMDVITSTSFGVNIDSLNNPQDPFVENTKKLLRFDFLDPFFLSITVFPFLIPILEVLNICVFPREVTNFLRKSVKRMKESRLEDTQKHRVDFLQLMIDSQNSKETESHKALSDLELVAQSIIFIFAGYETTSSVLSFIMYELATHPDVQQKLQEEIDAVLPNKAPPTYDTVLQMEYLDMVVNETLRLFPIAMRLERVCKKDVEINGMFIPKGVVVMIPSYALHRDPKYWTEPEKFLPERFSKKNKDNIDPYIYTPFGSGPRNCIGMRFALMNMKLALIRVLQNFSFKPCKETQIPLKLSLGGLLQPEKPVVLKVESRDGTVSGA

We go through three compounds from ChEMBL document CHEMBL5576133, “Development of VU6036864: A Triazolopyridine-Based High-Quality Antagonist Tool Compound of the M5 Muscarinic Acetylcholine Receptor” (J Med Chem, 2024).

Molecules are shown by their SMILES.

With `[2H]C1([2H])CC(c2cn3ncnc3cc2Cl)CC([2H])([2H])N1S(=O)(=O)c1cnc(C)o1`, the TDI entry on Cytochrome P450 3A4 is given as “Not Active”.

Consider `Cc1ncc(S(=O)(=O)N2CCC(c3cn4ncnc4cc3Cl)CC2)s1`, for which the “Drug uptake(free)” value in data set [1] is recorded as 169 nM; in data set [6] it was 153 nM. Further, the Stability in data set [2] worked out at 49.6%; in data set [7] it was 81.1%. The fAUC in [3] turned out to be 0.22 µM·h; in [9], 2.94 µM·h; in data set [10] it was 1.796 µM·h. Also, the results for the fCmax in data set [4] and in [11] were 51.7 µM and 171 µM, respectively. Besides, the TDI result on Cytochrome P450 3A4 was “Not Active”. Moreover, the Drug metabolism entry in data set [5], in [12] and in data set [13] was “Metabolite_Notdetected” each time. For the same compound, the “Cp(f)” value in data set [8] came out at 160 nM.

With `Cc1ncc(S(=O)(=O)N2CCC(c3cn4ncnc4cc3Cl)CC2)o1`, the TDI entry on Cytochrome P450 3A4 was “Not Active”.
